Drawing on PubChem BioAssay AID504765 (Sanford-Burnham Center for Chemical Genomics, 2011), this text covers IC50 for 1 compound.

In the assay the target is glucose-6-phosphate dehydrogenase-6-phosphogluconolactonase (Plasmodium falciparum 3D7). The assay can be described thus: PfG6PD inhibitor potency, dose response, biochemical, fluorescence intensity (AID 504765). The following applies: Recombinant PfG6PD enzyme, fluorescence intensity (NADPH).

SMILES strings stand for the structures.

As to `CNc1nc(-c2ccccc2)[n+](-c2ccc(C)cc2)s1`, the IC50 (as a rule, the concentration needed to halve the response being measured) is 3.36 µM.
